Measurements from ChEMBL document CHEMBL4837250, “Discovery of LYC-55716: A Potent, Selective, and Orally Bioavailable Retinoic Acid Receptor-Related Orphan Receptor-γ (RORγ) Agonist for Use in Treating Cancer” (J Med Chem, 2021).

Target: T1, Nuclear receptor subfamily 1 group I member 2 (Homo sapiens, UniProt O75469)
T1 sequence (O75469 whole entry): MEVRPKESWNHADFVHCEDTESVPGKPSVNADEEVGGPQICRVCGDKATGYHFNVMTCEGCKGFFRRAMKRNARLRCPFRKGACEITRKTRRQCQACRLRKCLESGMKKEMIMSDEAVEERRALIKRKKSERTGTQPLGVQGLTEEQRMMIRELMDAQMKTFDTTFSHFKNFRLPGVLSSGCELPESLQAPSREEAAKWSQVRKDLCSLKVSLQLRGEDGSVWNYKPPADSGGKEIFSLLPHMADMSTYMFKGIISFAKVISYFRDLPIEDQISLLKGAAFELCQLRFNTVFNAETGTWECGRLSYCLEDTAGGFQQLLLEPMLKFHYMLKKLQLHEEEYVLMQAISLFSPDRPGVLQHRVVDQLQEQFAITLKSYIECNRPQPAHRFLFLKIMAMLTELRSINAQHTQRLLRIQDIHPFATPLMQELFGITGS

| Structure (SMILES) | EC50 |
| --- | --- |
| C/C(=C\c1ccc2c(c1)N(S(=O)(=O)c1cccc(C(F)(F)F)c1)C[C@H](CCC(=O)O)O2)c1ccccc1C | 5 µM |
| O=C(O)C1(C[C@H]2CN(S(=O)(=O)c3cccc(C(F)(F)F)c3)c3cc(-c4cc(F)cc(OC(F)F)c4)ccc3O2)COC1 | 5.46 µM |
| O=C(O)CC[C@H]1CN(S(=O)(=O)c2cccc(C(F)(F)F)c2)c2cc(/C=C/c3c(Cl)cccc3C(F)(F)F)ccc2O1 | 2 µM |
| CC(C)(C[C@H]1CN(S(=O)(=O)c2cccc(C(F)(F)F)c2)c2cc(-c3cc(F)cc(OC(F)F)c3)ccc2O1)C(=O)O [CINTIRORGON] | 8 µM |
